Results: article PMC10444810, “Induction of open-form bile canaliculus formation by hepatocytes for evaluation of biliary drug excretion” (Communications Biology, 2023)

Assays:
[1] = Reported human in vivo biliary excretion clearance and intrinsic clearance estimated from it (Eq. 4)
[2] = cited from earlier work
[3] = human, cited from earlier work
[4] = tested on: icHep (PXB-cells on claudin-1, -2, -3, -9 coated Transwell permeable support); assay: icHep permeation assay (sinusoidal to bile side) to estimate drug biliary excretion clearance; settings: for In vitro CLbile, app: single replicates; for In vitro CLbile, int / Predicted in vivo CLbile, int: single replicate
[5] = tested on: sandwich-cultured PXB-cells; assay: Biliary excretion activity (BEI) in sandwich-cultured PXB-cells; settings: for Predicted in vivo CLbile, int, Mean: mean of 3 replicates; for In vitro CLbile, int / Predicted in vivo CLbile, int: replicates # 1-3; for Predicted in vivo CLbile, int: scaled from in vitro CLbile; for BEI (%) Mean / BEI (%): PXB-cells (JFC); for BEI (%) Mean: mean of 3; for BEI (%): single replicate
[6] = Control, block with icHep (HUM181001B)
[7] = Control, block with icHep (JFC)

## SN-38
[1]; estimated from observed CLbile with fp, Rb, Qh 1400 ml/min
  Observed in vivo CLbile, int: 4911 mL/min
[1]; estimated from observed in vivo CLbile with fp, Rb and Qh 1400 ml/min
  Observed in vivo CLbile, int: 4911 mL/min
[2]; reported value
  fp, unbound fraction of the plasma protein: 0.00887
[2]; unbound fraction of the plasma protein
  fp: 0.00887
[2]; unbound fraction, reported value
  fp: 0.00887
[3]; reported in vivo biliary excretion clearance
  Observed in vivo CLbile: 42.5 mL/min
[3]; reported value
  Observed in vivo CLbile: 42.5 mL/min
[4]; [6]
  In vitro CLbile, app, Mean: 0.805 ul/min/106 cells
  In vitro CLbile, app: 0.822 ul/min/106 cells and 0.748 ul/min/106 cells and 0.845 ul/min/106 cells
[4]; [7]
  In vitro CLbile, app, Mean: 0.877 ul/min/106 cells
  In vitro CLbile, app: 0.845 ul/min/106 cells and 0.923 ul/min/106 cells and 0.862 ul/min/106 cells
[4]; icHep (HUM181001B)
  In vitro CLbile, int: 2.26 ul/min/106 cells and 2.43 ul/min/106 cells and 2.70 ul/min/106 cells
  Predicted in vivo CLbile, int: 488 mL/min and 525 mL/min and 582 mL/min
  In vitro CLbile, app, Mean: 3.27 ul/min/106 cells
  In vitro CLbile, app: 3.08 ul/min/106 cells and 3.18 ul/min/106 cells and 3.54 ul/min/106 cells
[4]; icHep (HUM181001B), CLbile,app of icHep minus control cells
  Biliary excretion clearance, in vitro, observed, CLbile, int: 2.46 ± 0.219 μl/min/10^6 cells
[4]; icHep (JFC)
  In vitro CLbile, int: 5.17 ul/min/106 cells and 5.32 ul/min/106 cells and 3.53 ul/min/106 cells
  Predicted in vivo CLbile, int: 1117 mL/min and 1150 mL/min and 762 mL/min
  In vitro CLbile, app, Mean: 5.55 ul/min/106 cells
  In vitro CLbile, app: 6.02 ul/min/106 cells and 6.25 ul/min/106 cells and 4.39 ul/min/106 cells
[5]; PXB-cells (JFC) B-CLEAR 2 min
  Predicted in vivo CLbile, int, Mean: 2873 mL/min
  In vitro CLbile, int: 19.4 ul/min/106 cells and 13.4 ul/min/106 cells and 7.09 ul/min/106 cells
  Predicted in vivo CLbile, int: 4200 mL/min and 2888 mL/min and 1531 mL/min
[5]; PXB-cells (JFC) B-CLEAR 5 min
  Predicted in vivo CLbile, int, Mean: 5000 mL/min
[5]; PXB-cells (JFC) B-CLEAR 10 min
  Predicted in vivo CLbile, int, Mean: 1090 mL/min
  In vitro CLbile, int: 3.68 ul/min/106 cells and 4.29 ul/min/106 cells and 7.17 ul/min/106 cells
  Predicted in vivo CLbile, int: 795 mL/min and 926 mL/min and 1549 mL/min
[5]; PXB-cells (JFC) B-CLEAR 20 min
  Predicted in vivo CLbile, int, Mean: 1099 mL/min
  In vitro CLbile, int: 6.44 ul/min/106 cells and 4.98 ul/min/106 cells and 3.85 ul/min/106 cells
  Predicted in vivo CLbile, int: 1390 mL/min and 1075 mL/min and 832 mL/min
[5]; 2 min
  BEI (%) Mean: 51.8%
  BEI (%): 63.0% and 54.0% and 38.3%
[5]; 5 min
  BEI (%) Mean: 80.9%
  BEI (%): 82.4% and 71.4% and 89.0%
[5]; 10 min
  BEI (%) Mean: 67.6%
  BEI (%): 61.8% and 65.3% and 75.9%
[5]; 20 min
  BEI (%) Mean: 81.2%
  BEI (%): 85.0% and 81.4% and 77.2%
[5]; sandwich-cultured PXB-cells (JFC), mean ± S.D., n = 3
  Biliary excretion clearance, in vivo, predicted, CLbile, int: 1099 ± 280 mL/min

Values joined by “and” are separate entries in the source; they are usually repeats but may differ in a detail not shown here. Equal values may be shown once. Read-outs that look alike come from different tables or passages of the source.
